Hits are enriched below; roughly 1.8% of the tested compounds scored in any of these assays.
Cneo AK release: Cryptococcus neoformans cell lysis inducers, primary screen, AK release luminescence, single concentration. hit rate 0.2% among 360,000. lysis activity, % at 15 µM. C. neoformans lysis, adenylate kinase release luminescence, 4 h; normalised: neutral wells 0, clomiphene wells 100;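 active means mean lysis activity across replicates of at least 80%, whatever share of replicates individually reach that level; inactive means mean lysis activity below 80%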
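Assay system: Cryptococcus neoformans yeast cells / Dosing: single-point compound dose / Timing: 4 h at 37 °C static, read 1 h later / Measured by: luminescence of released adenylate kinase using an AK detection reagent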
DENV2 CPE: inhibitors of DENV2 cytopathic effect, primary screen, cell-based, plate reader, single concentration. DENV2-infected cells, cytopathic effect rescue. CPE inhibition, % at 9.99 µM. hit rate 1.7% among 350,000. AID 651640, 2012; in the data active means CPE inhibition above about 20%, passing the limit was not always enough; inconclusive means no clear call, values can overlap the other calls; tested in BHK-21 cells
UUG fidelity: yeast start codon fidelity modulation | S. cerevisiae UUG-firefly luciferase reporter, luminescence/redox ratio | activity score, % at 18.7 µM | 0.13% of 350,000 active | AID 602363;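 active means replicate mean at a twofold rise or more, about +100% in these data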;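 further: firefly luciferase made from a UUG start codon reports start codon fidelity; reporter light over untreated wells divided by growth signal over untreated wells; some hits fall short of that in this replicate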
E-selectin induc: E-selectin induction in HUVECs, primary screen, imaging, HUVEC, immunofluorescence imaging, single point; normalized: neutral wells 0, TNF-alpha wells 100; AID 686992, 2013; P16581; activation, % at 7.58 µM; hit rate 0.37% among 260,000;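 active means mean E-selectin-positive cell signal at least 10% of the positive control, reached in at least 60% of replicates, without over 20% cell loss; inconclusive means no rule given, readout overlaps actives, possibly toxicity-flagged; inactive means the rest, including those meeting only one limit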
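Assay system: HUVEC, human umbilical vein endothelial cells / Amount: 3,000 HUVEC/well / Controls: TNF-alpha positive control, DMSO neutral control / Compound dosing: single concentration / Medium: EGM-2 over gelatin coat / Evaluation: percent E-selectin-positive cells / Signal: immunofluorescence imaging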
Each line names hits and unclear results; the compound was inactive in the other large screens.

Cc1noc(C)c1S(=O)(=O)N(C)C[C@@H]1Oc2c(NC(=O)c3cnccn3)cccc2C(=O)N([C@@H](C)CO)C[C@@H]1C	Cneo AK release 114.0
C[C@H]1CN([C@@H](C)CO)C(=O)c2cccc(NS(C)(=O)=O)c2O[C@H]1CN(C)S(C)(=O)=O	E-selectin induc 36.4
C[C@H](CO)N1C[C@H](C)[C@@H](CN(C)S(C)(=O)=O)Oc2c(NC(=O)c3cnccn3)cccc2C1=O	none
C[C@@H]1CCCCO[C@H](CN(C)C(=O)C2CCCCC2)[C@H](C)CN([C@@H](C)CO)C(=O)c2cc(NS(=O)(=O)c3cccs3)ccc2O1	none
Cc1noc(C)c1NC(=O)N(C)C[C@H]1Oc2ccc(NC(=O)c3ccncc3)cc2C(=O)N([C@H](C)CO)C[C@H]1C	E-selectin induc 347.6
Cc1noc(C)c1NC(=O)N(C)C[C@H]1OCCCC[C@H](C)Oc2ccc(NC(=O)c3ccncc3)cc2C(=O)N([C@@H](C)CO)C[C@@H]1C	none
Cc1noc(C)c1NC(=O)N(C)C[C@@H]1Oc2ccc(N(C)C)cc2C(=O)N([C@H](C)CO)C[C@H]1C	none
Cc1noc(C)c1NC(=O)N(C)C[C@@H]1Oc2ccc(NC(=O)NC(C)C)cc2C(=O)N([C@@H](C)CO)C[C@H]1C	DENV2 CPE 44.8
Cc1noc(C)c1NC(=O)N(C)C[C@@H]1Oc2ccc(NC(=O)c3ccncc3)cc2C(=O)N([C@H](C)CO)C[C@@H]1C	E-selectin induc 421.0
Cc1noc(C)c1NC(=O)N(C)C[C@H]1Oc2ccc(N(C)C)cc2C(=O)N([C@H](C)CO)C[C@@H]1C	Cneo AK release 101.7 (no result: E-selectin induc)
CCC(=O)Nc1ccc2c(c1)C(=O)N(C)[C@H]1CC[C@@H](CC(=O)NCc3ccccc3)O[C@H]1CO2	none
C[C@H]1CN([C@@H](C)CO)C(=O)c2cc(C#CCc3ccccc3)cnc2O[C@H]1CN(C)Cc1ccccc1	none (no result: Cneo AK release, UUG fidelity)
COc1ccc(CNC(=O)Nc2ccc3c(c2)c(=O)n(C)n3Cc2cc(C)cc(C)c2)cc1	DENV2 CPE 32.2
Cn1c(=O)c2cc(NC(=O)NCc3ccccc3)ccc2n1Cc1cccc(C(F)(F)F)c1	none
O=C(NCC1CC1)[C@@H]1[C@@H](CO)[C@@H]2Cn3c(cccc3=O)[C@@H]2N1C(=O)Nc1ccccc1	none (no result: Cneo AK release, DENV2 CPE, UUG fidelity)
CN(C)c1ccc(/C=N/NC(=O)c2ccc3nc[nH]c3c2)cc1	none (no result: Cneo AK release, UUG fidelity)
CSc1ccc(/C=N/NC(=O)c2ccc3nc[nH]c3c2)cc1	E-selectin induc 40.5
C[C@@H]1CN([C@@H](C)CO)S(=O)(=O)c2ccc(-c3ccc(F)cc3)cc2O[C@@H]1CN(C)C	none
COc1ccc(-c2cc3nc(-c4ccccc4)cc(N4CCN(C(=O)c5ccccc5)CC4)n3n2)cc1	none (no result: Cneo AK release, UUG fidelity)
COc1ccc(-c2cc3nc(-c4ccccc4)cc(N4CCN(C(=O)c5ccsc5)CC4)n3n2)cc1	DENV2 CPE 62.8
COc1ccc(C(CNC(=O)CCNC(=O)c2ccc(Br)cc2)N2CCOCC2)cc1 (centres undefined)	DENV2 CPE 38.9
COc1ccc(S(=O)(=O)N(C)C[C@@H]2Oc3c(NC(=O)Nc4c(C)noc4C)cccc3C(=O)N([C@H](C)CO)C[C@@H]2C)cc1	none (no result: Cneo AK release, DENV2 CPE)
CC(C)Cn1c(=O)c2ccccc2n2c(CCC(=O)O)nnc12	DENV2 CPE 70.2
C[C@@H]1CCCCO[C@H](CN(C)S(=O)(=O)c2ccccc2)[C@H](C)CN([C@@H](C)CO)C(=O)c2cc(NS(=O)(=O)c3ccc(Cl)cc3)ccc2O1	none
COC1CCN(Cc2c(C(=O)N3C[C@@H](C)O[C@@H](C)C3)nc3ccc(Cl)cn23)CC1	none
CCN(CC)C1CCN(Cc2c(C(=O)N3CCCCCCC3)nc3ccc(Cl)cn23)C1 (centres undefined)	DENV2 CPE 35.0
CC(C)C#Cc1cnc2c(c1)C(=O)N([C@H](C)CO)C[C@@H](C)[C@H](CN(C)C(=O)Nc1cc(F)ccc1F)O2	none
O=C(Nc1ccc2c(c1)OCCO2)C(c1ccnc2ccccc12)n1c(=O)c(-c2ccco2)nc2ccccc21 (centres undefined)	DENV2 CPE 50.3 (no result: Cneo AK release, UUG fidelity)
CN1c2ccc(Cl)cc2C(=O)NC1c1ccc([N+](=O)[O-])s1 (centres undefined)	DENV2 CPE 45.5 (no result: E-selectin induc)
O=[N+]([O-])c1ccc(CNc2ccc(Cl)cc2)s1	none
COC(=O)[C@@]1(Cc2ccc(F)cc2)[C@H]2c3cc(C(=O)N(C)C)n(Cc4ccc(C)o4)c3C[C@H]2CN1C(=O)c1ccccc1	E-selectin induc 86.2 (no result: Cneo AK release, UUG fidelity)
COCCn1c(C(=O)N2CCCC2)cc2c1C[C@H]1CN(C(=O)c3ccccc3)[C@@](Cc3ccc(F)cc3)(C(=O)OC)[C@@H]21	DENV2 CPE 63.9 (no result: Cneo AK release, UUG fidelity)
COC(=O)[C@@]1(Cc2ccc(F)cc2)[C@H]2c3cc(C(=O)N(C)C)n(Cc4ccccc4)c3C[C@H]2CN1C(=O)c1ccccc1	none (no result: Cneo AK release, UUG fidelity)
COC(=O)[C@@]1(Cc2ccc(F)cc2)[C@H]2c3cc(C(=O)N4CCCC4)n(Cc4ccccc4)c3C[C@H]2CN1C(=O)c1ccccc1	none (no result: Cneo AK release, UUG fidelity)
CCC(=O)N[C@H]1C=C[C@@H](CC(=O)NCC2CC2)O[C@@H]1CO	DENV2 CPE inconclusive (no result: Cneo AK release, UUG fidelity)
CCC(=O)N[C@@H]1CC[C@H](CCn2cc(CN(C)C)nn2)O[C@H]1CO	none
Cc1ccc(NC(=S)NCc2ccc(Cl)cc2)c(OC(F)F)c1	Cneo AK release 344.1
CCNC(=S)NCc1ccc(Cl)cc1	none (no result: DENV2 CPE, E-selectin induc)
Fc1ccccc1CNC(=S)NCc1ccc(Cl)cc1	Cneo AK release 194.2
Cc1ccc(CNC(=S)Nc2ccc(OC(F)F)cc2C)cc1	none (no result: Cneo AK release, UUG fidelity, E-selectin induc)
Cc1cc(Cl)ccc1NC(=S)NCc1ccc(F)cc1	Cneo AK release 92.8
CC(C)NC(=O)Nc1cccc2c1O[C@H](CN(C)Cc1ccccc1)[C@@H](C)CN([C@H](C)CO)C2=O	none
O=C(NCC[C@H]1CC[C@@H](NC(=O)c2cccnc2)[C@H](CO)O1)Nc1ccc(F)cc1	DENV2 CPE 20.6
COc1ccc(NC(=O)N[C@@H]2CC[C@@H](CCNS(=O)(=O)c3cccc(Cl)c3)O[C@@H]2CO)cc1	DENV2 CPE 114.1
COc1ccc(NC(=O)N[C@H]2CC[C@@H](CCNS(=O)(=O)c3cccc(Cl)c3)O[C@@H]2CO)cc1	none
O=C(NCC[C@@H]1CC[C@@H](NC(=O)c2cccnc2)[C@H](CO)O1)Nc1ccc(F)cc1	none
O=C(Cc1ccncc1)NCC[C@@H]1CC[C@@H](NC(=O)Nc2cccc(F)c2)[C@@H](CO)O1	DENV2 CPE 22.7
COc1cccc(NC(=O)N[C@@H]2CC[C@@H](CC(=O)N3CCOCC3)O[C@@H]2CO)c1	DENV2 CPE 64.1
O=C(NC1CCCCC1)N1CC(=O)N2[C@@H](CO)[C@@H](c3ccc(-c4cccnc4)cc3)[C@@H]2C1	none (no result: Cneo AK release, UUG fidelity)
C[C@@H]1CN([C@H](C)CO)C(=O)c2cccc(NC(=O)C3CCOCC3)c2O[C@@H]1CN(C)C(=O)Nc1ccc2c(c1)OCO2	none
O=C(Nc1cccc(F)c1)N[C@H]1CC[C@@H](CCNS(=O)(=O)c2cccc(Cl)c2)O[C@@H]1CO	Cneo AK release 105.8 (no result: UUG fidelity)

Screening data: PubChem BioAssay, Broad Institute
